Measured values reported in PMC9482650, “Quantitative fragmentomics allow affinity mapping of interactomes” (Nature Communications, 2022).

Sequences of proteins named here, by UniProt entry; tags and fusion partners are left off. Residues count along the entry.
UniProt Q15599, 150-230 limits assumed: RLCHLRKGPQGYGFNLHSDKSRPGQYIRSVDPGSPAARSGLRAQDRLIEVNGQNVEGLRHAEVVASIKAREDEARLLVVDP

Biological target: NHERF2_2 PDZ (Homo sapiens, UniProt Q15599)
Assay: Holdup assay
Format: binding
Settings: composite holdup affinity; 0.00=below quantification threshold; read-out: COMP pKd (converted)

Kd: 4.1 µM
Structure (SMILES): CC(C)C[C@H](NC(=O)[C@H](CCCNC(=N)N)NC(=O)[C@@H](NC(=O)[C@H](CC(=O)O)NC(=O)[C@H](CCC(N)=O)NC(=O)[C@@H](NC(=O)[C@H](CCC(=O)O)NC(=O)[C@H](CCC(=O)O)NC(=O)[C@H](CCC(=O)O)NC(=O)[C@@H](N)[C@@H](C)O)C(C)C)[C@@H](C)O)C(=O)O [CFTR]
